Data as given in patent US20240158413A1, “FUSED POLYCYCLIC SUBSTITUTED 5-CARBOXYLIC ACID THIENOPYRIMIDINE DIONE COMPOUND AND USE THEREOF” (SOTER BIOPHARMA PTE. LTD., priority 2021, published 2024).

Amino acid sequences for entries named in this document (tags omitted).
UniProt P30968, whole entry: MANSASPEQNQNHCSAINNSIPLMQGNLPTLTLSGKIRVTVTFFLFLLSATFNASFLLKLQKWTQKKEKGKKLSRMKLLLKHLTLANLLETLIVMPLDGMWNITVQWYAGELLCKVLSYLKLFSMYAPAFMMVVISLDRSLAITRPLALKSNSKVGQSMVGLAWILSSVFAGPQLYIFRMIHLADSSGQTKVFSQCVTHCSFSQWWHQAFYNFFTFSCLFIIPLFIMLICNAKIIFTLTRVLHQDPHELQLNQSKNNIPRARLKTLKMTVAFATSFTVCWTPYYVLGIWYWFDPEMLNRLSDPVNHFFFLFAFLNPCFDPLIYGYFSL

Target: human gonadotropin-releasing hormone receptor (Homo sapiens (Human), UniProt P30968)
Assay: FLIPR calcium flow assay of inhibitory activity on gonadotropin-releasing hormone receptor in GnRH/HEK293 cells
Conditions: read-out: IC50 on inhibiting the activity of human gonadotropin-releasing hormone receptor, Ca2+ flow, agonist Leuprolide acetate
Protocol: Objective of assay: to detect the inhibitory activity of assay compounds on gonadotropin-releasing hormone receptor at the cellular level using FLIPR detection technology.
GnRH/HEK293 (human embryonic kidney cell 293) cultured cells in the logarithmic growth phase were washed with DPBS (Dulbecco's phosphate buffered saline) buffer, and an appropriate amount of 0.05% EDTA (ethylenediaminetetraacetic acid)-trypsin was added. The cells were placed in a carbon dioxide incubator at 37° C. for digestion for 1-2 minutes, and then removed from the incubator. A medium was added to the cells to terminate the digestion. Cells were dispersed by repeated pipetting and harvested by centrifugation. […]
On the next day, 20 μL, of 2×Fluo-4Direct™ buffer was added to each well, and the plate was incubated in a 5% CO2, 37° C. incubator for 50 minutes. […] The fluorescence signal was read. Then 10 μL of the reference compound as an agonist was added, and the fluorescent signal was read. EC50 was calculated, and the agonist with a concentration of 6×EC50 was prepared.
2 mM assay compounds and an appropriate concentration of reference compound were serially diluted 4-fold to 10 concentrations in ECHO, and 900 nL of that was transferred to a compound plate. […] The fluorescent signal was read. Then 10 μL of agonist with a concentration of 6×EC50 was added to the cell plate and the fluorescent signal was read. […]

| SMILES | IC50 |
| --- | --- |
| O=C(O)c1scc2[nH]c(=O)n(-c3cc4c(cc3F)OCCCOc3c(F)cc(F)cc3CO4)c(=O)c12 | 18 nM |
| O=C(O)c1scc2[nH]c(=O)n(-c3cc4c(cc3F)OCCCCOc3ccc(F)c(F)c3CO4)c(=O)c12 | 10.1 nM |
